Experimental data as given in IntAct's records for PubMed 26712280.

B1: Ubiquitin recognition factor in ER-associated degradation protein 1 (Homo sapiens), Q92890 (parent)
chain: MFSFNMFDHPIPRVFQNRFSTQYRCFSVSMLAGPNDRSDVEKGGKIIMPPSALDQLSRLNITYPMLFKLTNKNSDRMTHCGVLEFVADEGICYLPHWMMQNLLLEEGGLVQVESVNLQVATYSKFQPQSPDFLDITNPKAVLENALRNFACLTTGDVIAINYNEKIYELRVMETKPDKAVSIIECDMNVDFDAPLGYKEPERQVQHEESTEGEADHSGYAGELGFRAFSGSGNRLDGKKKGVEPSPSPIKPGDIKRGIPNYEFKLGKITFIRNSRPLVKKVEEDEAGGRFVAFSGEGQSLRKKGRKP

Variants of: B1
Details: with tera_human VCP

Row | Variant | effect of a mutation on the interaction
1 | MFSFNMFDHPIPRVFQNRFSTQYRCFSVSMLAGPNDRSDVEKGGKIIMPPSALDQLSRLNITYPMLFKLTNKNSDRMTHCGVLEFVADEGICYLPHWMMQNLLLEEGGLVQVESVNLQVATYSKFQPQSPDFLDITNPKAVLENALRNFACLTTGDVIAINYNEKIYELRVMETKPDKAVSIIECDMNVDFDAPLGYKEPERQVQHEESTEGEADHSGYAGELGARAFSGSGNRLDGKKKGVEPSPSPIKPGDIKRGIPNYEFKLGKITFIRNSRPLVKKVEEDEAGGRFVAFSGEGQSLRKKGRKP [F225A] | decreasing interaction strength
2 | MFSFNMFDHPIPRVFQNRFSTQYRCFSVSMLAGPNDRSDVEKGGKIIMPPSALDQLSRLNITYPMLFKLTNKNSDRMTHCGVLEFVADEGICYLPHWMMQNLLLEEGGLVQVESVNLQVATYSKFQPQSPDFLDITNPKAVLENALRNFACLTTGDVIAINYNEKIYELRVMETKPDKAVSIIECDMNVDFDAPLGYKEPERQVQHEESTEGEADHSGYAGELGFRAASGSGNRLDGKKKGVEPSPSPIKPGDIKRGIPNYEFKLGKITFIRNSRPLVKKVEEDEAGGRFVAFSGEGQSLRKKGRKP [F228A] | disrupting interaction strength
3 | MFSFNMFDHPIPRVFQNRFSTQYRCFSVSMLAGPNDRSDVEKGGKIIMPPSALDQLSRLNITYPMLFKLTNKNSDRMTHCGVLEFVADEGICYLPHWMMQNLLLEEGGLVQVESVNLQVATYSKFQPQSPDFLDITNPKAVLENALRNFACLTTGDVIAINYNEKIYELRVMETKPDKAVSIIECDMNVDFDAPLGYKEPERQVQHEESTEGEADHSGYAGELGFRAFSGSGARLDGKKKGVEPSPSPIKPGDIKRGIPNYEFKLGKITFIRNSRPLVKKVEEDEAGGRFVAFSGEGQSLRKKGRKP [N233A] | decreasing interaction strength
4 | MFSFNMFDHPIPRVFQNRFSTQYRCFSVSMLAGPNDRSDVEKGGKIIMPPSALDQLSRLNITYPMLFKLTNKNSDRMTHCGVLEFVADEGICYLPHWMMQNLLLEEGGLVQVESVNLQVATYSKFQPQSPDFLDITNPKAVLENALRNFACLTTGDVIAINYNEKIYELRVMETKPDKAVSIIECDMNVDFDAPLGYKEPERQVQHEESTEGEADHSGYAGELGFRAFSGSGNALDGKKKGVEPSPSPIKPGDIKRGIPNYEFKLGKITFIRNSRPLVKKVEEDEAGGRFVAFSGEGQSLRKKGRKP [R234A] | decreasing interaction strength
5 | MFSFNMFDHPIPRVFQNRFSTQYRCFSVSMLAGPNDRSDVEKGGKIIMPPSALDQLSRLNITYPMLFKLTNKNSDRMTHCGVLEFVADEGICYLPHWMMQNLLLEEGGLVQVESVNLQVATYSKFQPQSPDFLDITNPKAVLENALRNFACLTTGDVIAINYNEKIYELRVMETKPDKAVSIIECDMNVDFDAPLGYKEPERQVQHEESTEGEADHSGYAGELGFRAFSGSGNRADGKKKGVEPSPSPIKPGDIKRGIPNYEFKLGKITFIRNSRPLVKKVEEDEAGGRFVAFSGEGQSLRKKGRKP [L235A] | decreasing interaction strength
